This assay deals with human 11b-hsd-1 (Homo sapiens, UniProt P28845). In words: Inhibition constant Ki of human 11b-hsd-1 (3H-cortisone to 3H-cortisol conversion, HPLC). Format: biochemical.

The chains behind the UniProt entries cited, without tags or fusion partners.
UniProt P28845, whole entry: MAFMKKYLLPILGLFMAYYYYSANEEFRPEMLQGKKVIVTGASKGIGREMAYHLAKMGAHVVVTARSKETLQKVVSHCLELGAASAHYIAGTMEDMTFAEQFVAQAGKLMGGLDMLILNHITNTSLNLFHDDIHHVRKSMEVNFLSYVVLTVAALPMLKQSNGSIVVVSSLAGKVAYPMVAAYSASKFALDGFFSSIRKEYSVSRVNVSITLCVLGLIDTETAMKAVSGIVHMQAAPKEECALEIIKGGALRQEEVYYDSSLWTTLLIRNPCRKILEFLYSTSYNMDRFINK

For the compound `O=C(NC12CC3CC(CC(C3)C1)C2)C1COCCN1Cc1cccc(OC(F)F)c1` (centres unmarked), the “% inh @ 0.1 μM” value (compound at 0.1 μM) was determined as 100%. Moreover, the Ki (read-out: Ki app, apparent Ki, human 11b-hsd-1) amounted to 1.6 nM.
